We go through one compound from patent US20220168325A1, “METHODS TO PROMOTE CEREBRAL BLOOD FLOW IN THE BRAIN” (THE UNIVERSITY OF VERMONT, priority 2019, published 2022).

This test addresses T1, Kir2.1 channel (Mus musculus, UniProt P35561).
T1 sequence (P35561 1-428): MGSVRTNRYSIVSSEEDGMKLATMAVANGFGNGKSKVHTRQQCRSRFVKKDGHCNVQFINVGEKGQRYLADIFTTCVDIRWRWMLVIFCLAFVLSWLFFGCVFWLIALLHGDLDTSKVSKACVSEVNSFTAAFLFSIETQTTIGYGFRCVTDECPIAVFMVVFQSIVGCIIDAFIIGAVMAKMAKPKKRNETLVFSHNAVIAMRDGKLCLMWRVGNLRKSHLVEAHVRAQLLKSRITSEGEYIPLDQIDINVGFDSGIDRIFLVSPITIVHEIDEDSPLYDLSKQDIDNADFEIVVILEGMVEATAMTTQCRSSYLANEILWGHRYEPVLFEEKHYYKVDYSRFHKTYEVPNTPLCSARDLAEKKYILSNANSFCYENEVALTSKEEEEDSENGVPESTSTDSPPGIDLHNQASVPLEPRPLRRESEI
The test is described as follows: Patch-clamp recording of Kir2.1 currents in freshly isolated brain capillary endothelial cells (cECs). For orientation: Patch clamp records ionic current or voltage across a cell membrane.

In the case of `C[N+](C)(C)CC#CCN1CCCC1=O.[I-]` [oxotremorine M, N,N,N-trimethyl-4-(2-oxo-1-pyrolidinyl)-2-butyn-1-ammonium iodide], the “Decrease of Kir2.1 currents after 15-minute incubation” value turned out to be 40±5%.
